Measured values: patent US8853193B2, “Thienopyrimidines containing a substituted alkyl group for pharmaceutical compositions” (Boehringer Ingelheim International GmbH, priority 2010, dated 2014)

Chains of the proteins cited; added tags and fusions are not shown.
UniProt Q9HBH9, whole entry: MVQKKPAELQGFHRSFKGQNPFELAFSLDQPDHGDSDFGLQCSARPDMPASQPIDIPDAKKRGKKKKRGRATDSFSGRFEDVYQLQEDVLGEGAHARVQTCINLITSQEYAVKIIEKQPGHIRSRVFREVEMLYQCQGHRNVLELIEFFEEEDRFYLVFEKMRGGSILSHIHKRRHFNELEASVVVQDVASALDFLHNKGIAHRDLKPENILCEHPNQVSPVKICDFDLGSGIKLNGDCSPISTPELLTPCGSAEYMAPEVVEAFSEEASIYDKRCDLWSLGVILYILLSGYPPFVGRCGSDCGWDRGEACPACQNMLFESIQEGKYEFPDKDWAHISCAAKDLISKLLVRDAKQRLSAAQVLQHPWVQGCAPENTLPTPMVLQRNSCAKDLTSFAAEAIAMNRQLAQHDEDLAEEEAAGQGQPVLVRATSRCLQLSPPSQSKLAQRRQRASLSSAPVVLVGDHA

Biological target: human Mnk2a (Homo sapiens (Human), UniProt Q9HBH9)
Assay: Mnk2a in vitro kinase assay (indirect competitive fluorescence polarization)
Format: biochemical
Settings: read-out: MNK2 IC50; pre-activated GST-Mnk2a 2.5 nM, 20 μM ATP, 30 μM substrate peptide

In the case of `Cc1c(C(=O)NCCCN(C)C)sc2ncnc(Nc3ccc(F)cc3OC(C)CC(F)(F)F)c12` (stereo not shown), the IC50 is reported as 13 nM.
